Reference: publication PMC8630191, “Regulation of PP2A, PP4, and PP6 holoenzyme assembly by carboxyl-terminal methylation” (Scientific Reports, 2021)

Amino acid sequences for entries named in this document (tags omitted). Residues count along the entry.
UniProt P62714, 1-308, stated change not applied: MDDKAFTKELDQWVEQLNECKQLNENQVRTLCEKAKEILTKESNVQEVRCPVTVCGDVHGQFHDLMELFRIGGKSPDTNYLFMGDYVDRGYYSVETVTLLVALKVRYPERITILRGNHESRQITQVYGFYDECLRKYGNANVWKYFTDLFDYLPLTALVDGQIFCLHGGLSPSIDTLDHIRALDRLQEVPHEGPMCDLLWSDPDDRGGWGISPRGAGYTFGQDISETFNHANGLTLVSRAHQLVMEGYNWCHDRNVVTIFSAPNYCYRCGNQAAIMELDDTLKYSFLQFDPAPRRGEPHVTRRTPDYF

Target: T1, 3xFLAG-tagged PP2Acβ ΔL mutant (Leu 309 deleted) (human, UniProt P62714, ΔL309)
T1 construct: PP2A catalytic subunit, beta isoform (PP2Acβ, PPP2CB), human, in p3XFLAG-CMV10; C-terminal Leu 309 deleted by inserting a stop codon; also called ΔL309
Experiment: affinity purification with mass spectrometry; 3xFLAG-tagged catalytic subunit (WT or ΔL) transfected in FreeStyle 293F cells; FLAG M2 affinity gel, 3 h at 4 °C; lysis and wash buffer 50 mM Tris pH 7.5, 500 mM NaCl, 0.5% Triton X-100; eluted with 3XFLAG peptide; label-free quantitative LC-MS/MS on unique peptides, three replicates
Conditions: partners not purified

B1: PR65α, PP2A scaffolding (A) subunit (natural protein)
chain: not shown
notes: PP2A scaffolding subunit A, alpha isoform (PR65α)
In the case of B1, the “fold reduction of binding, ΔL against WT” value is reported as ~4 fold.
